Laboratory results reported in patent US10112932B2, “Benzoxazepin oxazolidinone compounds and methods of use” (Genentech, Inc., priority 2015, dated 2018).

Protein sequences, listed by entry. Tags and fused reporters are not part of them. Lines headed by an entry give the natural chain unless they say otherwise; changes in a name come on top.
UniProt O00329: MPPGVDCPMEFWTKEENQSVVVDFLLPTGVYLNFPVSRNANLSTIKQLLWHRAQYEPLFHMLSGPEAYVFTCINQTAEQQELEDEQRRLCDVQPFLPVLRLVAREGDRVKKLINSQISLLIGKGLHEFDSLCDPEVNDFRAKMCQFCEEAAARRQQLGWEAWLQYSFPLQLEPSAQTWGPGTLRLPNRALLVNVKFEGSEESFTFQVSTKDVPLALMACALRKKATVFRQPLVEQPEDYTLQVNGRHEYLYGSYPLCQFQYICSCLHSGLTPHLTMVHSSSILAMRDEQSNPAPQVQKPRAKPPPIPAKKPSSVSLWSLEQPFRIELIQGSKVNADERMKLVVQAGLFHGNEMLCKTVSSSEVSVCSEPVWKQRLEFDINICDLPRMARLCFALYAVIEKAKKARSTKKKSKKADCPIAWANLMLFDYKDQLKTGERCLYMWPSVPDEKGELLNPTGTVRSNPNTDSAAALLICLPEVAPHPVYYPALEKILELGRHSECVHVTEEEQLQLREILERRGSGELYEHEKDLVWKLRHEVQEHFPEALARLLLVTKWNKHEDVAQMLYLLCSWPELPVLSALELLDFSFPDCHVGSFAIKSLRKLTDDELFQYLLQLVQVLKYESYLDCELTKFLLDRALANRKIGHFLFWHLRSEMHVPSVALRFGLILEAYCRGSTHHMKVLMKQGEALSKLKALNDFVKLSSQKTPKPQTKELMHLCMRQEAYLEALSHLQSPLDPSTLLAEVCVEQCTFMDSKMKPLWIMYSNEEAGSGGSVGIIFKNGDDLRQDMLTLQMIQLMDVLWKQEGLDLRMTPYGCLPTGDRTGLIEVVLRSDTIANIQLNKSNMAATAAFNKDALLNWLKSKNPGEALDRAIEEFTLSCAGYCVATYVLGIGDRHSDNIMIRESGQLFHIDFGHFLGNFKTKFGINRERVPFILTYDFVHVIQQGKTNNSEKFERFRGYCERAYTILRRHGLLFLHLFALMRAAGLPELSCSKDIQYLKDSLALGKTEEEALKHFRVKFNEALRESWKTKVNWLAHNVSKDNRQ

Molecular target: PI3Kδ (Homo sapiens (Human), UniProt O00329)
Assay: Biochemical inhibition of PI3K delta (ADP-Glo lipid kinase assay, Example 901)
Conditions: geometric mean of minimum three experiments unless footnoted

| Ki | SMILES |
| --- | --- |
| 9.41 nM | CC(C)n1ncnc1-c1cn2c(n1)-c1ccc(OC(C(N)=O)C3CC3)cc1OCC2 (single isomer, unassigned) [549 (separated stereoisomer 1), reference compound] |
| 1.7 nM | CC(C)n1ncnc1-c1cn2c(n1)-c1ccc(OC(C(N)=O)C3CC3)cc1OCC2 (single isomer, unassigned) [549 (separated stereoisomer 2), reference compound] |
